From patent publication US7119182

Legend:
[1] = biological target: mutant thrombin receptor with the amino acid substitution R41A (human) (UniProt P25116); experiment: cell-based or functional assay
[2] = biological target: human thrombin receptor (human) (UniProt P25116); experiment: cell-based or functional assay

Fold increase in 45Ca (release by oocytes expressing receptor cRNA); Thrombin [1] | Fold increase in 45Ca (release by oocytes expressing receptor cRNA); Thrombin [2] | shift of the dose response of platelet ATP secretion to native thrombin, S205A at 400 nM [2] | Substance
0 fold | 26 fold | – | thrombin (from UniProt P00734 364-622; P00734 328-363) (enzyme)
– | – | 1 log | S205A mutant thrombin (from UniProt P00734 364-622; P00734 315-363) (enzyme)
